{"source": "patent US20200269668A1", "about": "“Biologically Efficacious Compositions, Articles of Manufacture And Processes For Producing And/Or Using Same” (priority 2011, published 2020)", "test": "Thermal stability of benzalkonium, free chloride vs bound to ion exchange material", "format": "physicochemical", "details": "free chloride salt", "from_the_text": "In addition, binding of a cationic species to the backbone of the ion exchange material can provide one or both of at least two benefits. These include, but are not limited to: 1.", "data": [{"substance": "alkyldimethyl(phenylmethyl) quaternary ammonium chloride [benzalkonium chloride]", "values": [{"measurement": "degradation temperature", "result": "around 180 °C"}]}]}
